Laboratory results from PubChem BioAssay AID489030 (Sanford-Burnham Center for Chemical Genomics, 2010).
The list shows a part of the results, in another mix than the full data. The source made the active and inactive calls. How the source made its calls: active means inhibition of at least 40% at 20 µM; inactive means the rest.

Chains of the proteins cited; added tags and fusions are not shown.
UniProt O14727, whole entry: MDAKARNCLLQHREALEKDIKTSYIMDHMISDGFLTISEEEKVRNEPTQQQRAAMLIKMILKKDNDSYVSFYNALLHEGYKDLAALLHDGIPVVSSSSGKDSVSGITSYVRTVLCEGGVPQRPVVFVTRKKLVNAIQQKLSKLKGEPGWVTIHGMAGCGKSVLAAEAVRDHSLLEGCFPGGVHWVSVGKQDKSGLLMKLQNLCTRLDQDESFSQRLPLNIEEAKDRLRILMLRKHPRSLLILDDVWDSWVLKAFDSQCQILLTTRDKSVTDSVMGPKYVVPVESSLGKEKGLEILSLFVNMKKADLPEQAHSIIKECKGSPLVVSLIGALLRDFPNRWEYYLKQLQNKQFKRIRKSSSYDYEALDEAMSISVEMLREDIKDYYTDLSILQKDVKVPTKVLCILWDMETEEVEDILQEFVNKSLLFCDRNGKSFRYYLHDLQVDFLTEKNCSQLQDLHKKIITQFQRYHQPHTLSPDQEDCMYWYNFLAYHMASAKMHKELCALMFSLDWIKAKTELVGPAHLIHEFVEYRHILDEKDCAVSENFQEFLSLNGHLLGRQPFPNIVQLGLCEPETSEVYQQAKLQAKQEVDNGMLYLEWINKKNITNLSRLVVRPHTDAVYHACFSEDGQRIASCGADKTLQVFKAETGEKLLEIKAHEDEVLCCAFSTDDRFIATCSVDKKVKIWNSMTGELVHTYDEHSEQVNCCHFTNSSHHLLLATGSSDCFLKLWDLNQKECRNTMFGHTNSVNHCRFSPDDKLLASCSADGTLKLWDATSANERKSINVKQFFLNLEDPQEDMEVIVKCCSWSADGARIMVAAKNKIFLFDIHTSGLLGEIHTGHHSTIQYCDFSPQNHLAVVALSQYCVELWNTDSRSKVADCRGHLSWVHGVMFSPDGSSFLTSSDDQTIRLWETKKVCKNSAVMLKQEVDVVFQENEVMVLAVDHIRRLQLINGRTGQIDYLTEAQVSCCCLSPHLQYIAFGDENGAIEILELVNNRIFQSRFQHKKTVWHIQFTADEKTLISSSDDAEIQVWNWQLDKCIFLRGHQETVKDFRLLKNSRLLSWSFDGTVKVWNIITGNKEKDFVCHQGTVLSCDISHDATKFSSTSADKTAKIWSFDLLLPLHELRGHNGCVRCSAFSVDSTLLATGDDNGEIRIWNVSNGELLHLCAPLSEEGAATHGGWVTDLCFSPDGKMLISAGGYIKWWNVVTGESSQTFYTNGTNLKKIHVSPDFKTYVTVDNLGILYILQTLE

Each molecule was assayed against Apoptotic protease-activating factor 1 (Homo sapiens) (UniProt O14727) (assay: inhibitors of human Apaf-1 apoptosome, primary screen, biochemical, DEVD-Rh110 fluorescence, uHTS (AID 489030;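 further: plate controls were DMSO wells for no effect and DEVD-CHO caspase inhibitor wells for full effect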)). Details: reconstituted apoptosome caspase-3 activity, at 20 µM, stronger effect = higher value.
`CCOC(=O)c1ccc(NP(C)(=O)Oc2ccc(OC)cc2)cc1` (centres undefined) was tested, and the inhibition was inactive: -7.26%.
`CP(=O)(Nc1ccccn1)Oc1ccc(Cl)cc1` (centres undefined) was tested, and the inhibition was inactive: -3.76%.
In the case of `CP(=O)(Oc1ccccc1)OC(c1ccccc1)C(F)(F)F` (centres undefined), the inhibition is reported as inactive: 15.7%.
In the case of `CP(=O)(Nc1ccc(SC(F)(F)F)cc1)Oc1ccc(Cl)cc1` (centres undefined), the inhibition is reported as inactive: 10.4%.
For `Cc1cccc(C)c1OP(C)(=O)Nc1ccc(SC(F)(F)F)cc1` (centres undefined), the inhibition was inactive: 28.5%.
`Cc1cc(C)cc(OP(C)(=O)Nc2ccc(SC(F)(F)F)cc2)c1` (centres undefined) was tested, and the inhibition was inactive: 11.2%.
For `CP(=O)(NC(=O)Nc1ccccc1)Oc1ccccc1` (centres undefined), the inhibition was inactive: -9.35%.
With `CCc1ccc(OP(C)(=O)N2CCN(c3ccc([N+](=O)[O-])cc3)CC2)cc1` (centres undefined) the inhibition was inactive: 1.54%.
`CP(=S)(Nn1cnnc1)Oc1ccccc1` (centres undefined) was tested, and the inhibition was inactive: -4.82%.
With `COc1ccccc1OP(C)(=O)Nc1ccccc1` (centres undefined) the inhibition was inactive: -0.127%.
`CP(=O)(Nc1ccccc1Br)Oc1ccccc1` (centres undefined) was tested, and the inhibition was inactive: -2.17%.
With `CCOC(=O)c1ccc(NP(C)(=O)Oc2ccccc2)cc1` (centres undefined) the inhibition was inactive: -5.6%.
`Cc1ccc(NP(C)(=O)Oc2ccccc2)c(C)c1` (centres undefined) was tested, and the inhibition was inactive: 0.101%.
With `COc1ccccc1OP(C)(=O)Nc1ccc(C)cc1` (centres undefined) the inhibition was inactive: 1.08%.
With `COc1ccc(OP(C)(=O)Nc2cccc(F)c2)cc1` (centres undefined) the inhibition was inactive: 4.3%.
For `COc1ccccc1OP(C)(=O)Nc1cc(Cl)ccc1C` (centres undefined), the inhibition was inactive: -0.578%.
`Cc1cc(C)cc(OP(C)(N)=O)c1` (centres undefined) was tested, and the inhibition was inactive: -0.464%.
`O=[N+]([O-])c1cc([N+](=O)[O-])c(Nc2cccnc2)c([N+](=O)[O-])c1` was tested, and the inhibition was inactive: 7.03%.
In the case of `Cc1cccc(C)c1OP(C)(N)=O` (centres undefined), the inhibition is reported as inactive: -6.25%.
For `CC(C)(C)c1ccc(OP(C)(=O)Nc2ccc(SC(F)(F)F)cc2)cc1` (centres undefined), the inhibition was inactive: 25.2%.
In the case of `CCN(CC)CCCOC(=O)C(O)(c1ccccc1)c1ccccc1`, the inhibition is reported as inactive: -2.47%.
`Cc1c(NP(C)(=O)Oc2ccc(C(C)C)cc2)c(=O)n(-c2ccccc2)n1C` (centres undefined) was tested, and the inhibition was inactive: -2.87%.
With `O=[N+]([O-])c1cc([N+](=O)[O-])c(Nc2ccccn2)c([N+](=O)[O-])c1` the inhibition was active: 62.9%.
For `CCc1ccc(OP(C)(=O)O)cc1`, the inhibition was inactive: -5.74%.
For `COc1ccccc1OP(C)(=O)Nc1ccc(C)cc1C` (centres undefined), the inhibition was inactive: -3.8%.
For `CP(=O)(Nc1ccccn1)Oc1ccccc1` (centres undefined), the inhibition was inactive: -5.57%.
In the case of `COc1ccccc1OP(C)(=O)Nc1ccc(Br)cc1` (centres undefined), the inhibition is reported as inactive: 1.93%.
`CN(C)CCOC(=O)C(O)(c1ccccc1)C1CCCC1` (centres undefined) was tested, and the inhibition was inactive: -9.22%.
For `COc1ccc(OP(C)(=O)Nc2ccccn2)cc1` (centres undefined), the inhibition was inactive: -10.6%.
